Data: patent publication US6596319B2, “Immunomodulating compositions for treatment of immune system disorders” (Lorus Therapeutics Inc., priority 2001, dated 2003)

System: lymphocytes
Assay: Stimulation of lymphocyte-mediated cytotoxic function
Type: cell-based, human
Conditions: optimal stimulating concentration of IL-2
Excerpt: These indicators of immune function also can be modulated in cancer patients treated with different biological response modifying agents, such as IFN or IL-2.
2. Stimulation of lymphocyte-mediated cytotoxic function and comparison with an optimal stimulating concentration of IL-2: […]

Substance: IL-2: interleukin-2, prototypic stimulator of lymphocyte cytotoxic function
- Lymphocyte-mediated cytotoxic function: 472.5 Lytic Units
